Like-named read-outs stand apart in the source and are kept apart here.
Target: C-Raf FL (full-length C-Raf protein, Y340E and Y341E activating mutations) (Homo sapiens (Human), UniProt P04049, Y340E/Y341E)
Format: biochemical
Conditions: read-out: c-Raf FL IC-50
[1] = AlphaScreen, 60 min pre-incubation, 1 hour reaction

By UniProt entry, the sequences of proteins in these tests, tags left out.
UniProt P04049, whole entry Y340E/Y341E: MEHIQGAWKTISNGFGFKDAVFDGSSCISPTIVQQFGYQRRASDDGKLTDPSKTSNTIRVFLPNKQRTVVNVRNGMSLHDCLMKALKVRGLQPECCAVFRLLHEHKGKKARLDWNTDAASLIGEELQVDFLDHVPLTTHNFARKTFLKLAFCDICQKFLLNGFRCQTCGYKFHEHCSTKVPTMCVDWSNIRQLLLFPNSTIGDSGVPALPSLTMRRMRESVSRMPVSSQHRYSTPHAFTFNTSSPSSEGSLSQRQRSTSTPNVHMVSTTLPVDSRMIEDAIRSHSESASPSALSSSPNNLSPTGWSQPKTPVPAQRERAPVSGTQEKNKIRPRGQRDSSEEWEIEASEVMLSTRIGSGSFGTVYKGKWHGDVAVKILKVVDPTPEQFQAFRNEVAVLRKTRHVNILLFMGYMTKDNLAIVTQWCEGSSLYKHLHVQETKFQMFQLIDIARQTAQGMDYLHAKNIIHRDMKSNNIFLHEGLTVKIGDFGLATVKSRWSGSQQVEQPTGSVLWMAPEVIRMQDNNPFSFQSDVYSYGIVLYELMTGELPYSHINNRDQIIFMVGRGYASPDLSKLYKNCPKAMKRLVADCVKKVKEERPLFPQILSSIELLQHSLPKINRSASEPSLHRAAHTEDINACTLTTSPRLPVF

**Q.** For `Cc1ccc(NC(=O)c2cnnc(C(C)(C)C#N)c2)cc1-c1cc(N2CCOCC2)c(=O)n(C)n1` [Example 646, 6-(2-cyanopropan-2-yl)-N-(4-methyl-3-(1-methyl-5-morpholino-6-oxo-1,6-dihydropyridazin-3-yl)phenyl)pyridazine-4-carboxamide], which IC50 [1] is on record?
**A.** 3.1 nM

**Q.** How did the IC50 [1] turn out when `Cc1ccc(NC(=O)c2cnnc(C(F)(F)F)c2)cc1-c1cc(N2CCOCC2)c(=O)n(C)n1` [Example 647, N-(4-methyl-3-(1-methyl-5-morpholino-6-oxo-1,6-dihydropyridazin-3-yl)phenyl)-6-(trifluoromethyl)pyridazine-4-carboxamide] was run?
**A.** 1.5 nM

**Q.** `Cc1ccc(NC(=O)c2ccnc(C3COC3)c2)cc1-c1cc(N2CCOCC2)c(=O)n(C)n1` [Example 648, N-(4-methyl-3-(1-methyl-5-morpholino-6-oxo-1,6-dihydropyridazin-3-yl)phenyl)-2-(oxetan-3-yl)isonicotinamide] was tested. Which IC50 [1] did it give?
**A.** 1.2 nM

**Q.** `CCN1CCN(c2cc(C(=O)Nc3ccc(C)c(-c4cc(N5CCOCC5)c(=O)n(C)n4)c3)cc(C(F)(F)F)c2)CC1` [Example 649, 3-(4-ethylpiperazin-1-yl)-N-(4-methyl-3-(1-methyl-5-morpholino-6-oxo-1,6-dihydropyridazin-3-yl)phenyl)-5-(trifluoromethyl)benzamide] was tested. Which IC50 [1] did it give?
**A.** 1.2 nM

**Q.** Which IC50 [1] does the source give for `Cc1ccc(NC(=O)c2cccc(CC#N)c2)cc1-c1cc(N2CCOCC2)c(=O)n(C)n1` [Example 652, 3-(cyanomethyl)-N-(4-methyl-3-(1-methyl-5-morpholino-6-oxo-1,6-dihydropyridazin-3-yl)phenyl)benzamide] here?
**A.** 0.5 nM

**Q.** `Cc1ccc(NC(=O)c2cccc(C(F)F)c2)cc1-c1cc(N2CCOCC2)c(=O)n(C)n1` [Example 655, 3-(difluoromethyl)-N-(4-methyl-3-(1-methyl-5-morpholino-6-oxo-1,6-dihydropyridazin-3-yl)phenyl)benzamide] was tested. Which IC50 [1] did it give?
**A.** 0.3 nM

**Q.** With `Cc1ccc(NC(=O)c2ccnc(C(C)(F)F)c2)cc1-c1cc(N2CCOCC2)c(=O)n(C)n1` [Example 657, 2-(1,1-difluoroethyl)-N-(4-methyl-3-(1-methyl-5-morpholino-6-oxo-1,6-dihydropyridazin-3-yl)phenyl)isonicotinamide] as the molecule, how does the IC50 [1] read?
**A.** 0.3 nM

**Q.** For `Cc1ccc(NC(=O)c2ccnc(C3(C#N)CC3)c2)cc1-c1cc(N2CCOCC2)c(=O)n(C)n1` [Example 659, 2-(1-cyanocyclopropyl)-N-(4-methyl-3-(1-methyl-5-morpholino-6-oxo-1,6-dihydropyridazin-3-yl)phenyl)isonicotinamide], which IC50 [1] is on record?
**A.** 0.1 nM

**Q.** `Cc1ccc(NC(=O)c2cc(CN(C)C)cc(C(F)(F)F)c2)cc1-c1cc(N2CCOCC2)c(=O)n(C)n1` [Example 661, 3-((dimethylamino)methyl)-N-(4-methyl-3-(1-methyl-5-morpholino-6-oxo-1,6-dihydropyridazin-3-yl)phenyl)-5-(trifluoromethyl)benzamide] was tested. Which IC50 [1] did it give?
**A.** 0.9 nM

**Q.** How did the IC50 [1] turn out when `Cc1ccc(NC(=O)c2ccnc(C(C)(C)F)c2)cc1-c1cc(N2CCOC[C@@H]2C)c(=O)n(C)n1` [Example 662, (S)-2-(2-fluoropropan-2-yl)-N-(4-methyl-3-(1-methyl-5-(3-methylmorpholino)-6-oxo-1,6-dihydropyridazin-3-yl)phenyl)isonicotinamide] was run?
**A.** 1.3 nM

**Q.** For `Cc1ccc(NC(=O)c2ccnc(C(C)(C)C#N)c2)cc1-c1cc(N2CCOC[C@@H]2C)c(=O)n(C)n1` [Example 663, (S)-2-(2-cyanopropan-2-yl)-N-(4-methyl-3-(1-methyl-5-(3-methylmorpholino)-6-oxo-1,6-dihydropyridazin-3-yl)phenyl)isonicotinamide], which IC50 [1] is on record?
**A.** 2.1 nM

**Q.** Which IC50 [1] does the source give for `Cc1ccc(NC(=O)c2ccnc(C(C)(F)F)c2)cc1-c1cc(N2CCOC[C@@H]2C)c(=O)n(C)n1` [Example 664, (S)-2-(1,1-difluoroethyl)-N-(4-methyl-3-(1-methyl-5-(3-methylmorpholino)-6-oxo-1,6-dihydropyridazin-3-yl)phenyl)isonicotinamide] here?
**A.** 0.6 nM

**Q.** Which IC50 [1] does the source give for `Cc1ccc(NC(=O)c2ccnc(C(C)(C)F)c2)cc1-c1cc(N2CCOC(C)(C)C2)c(=O)n(C)n1` [Example 665, N-(3-(5-(2,2-dimethylmorpholino)-1-methyl-6-oxo-1,6-dihydropyridazin-3-yl)-4-methylphenyl)-2-(2-fluoropropan-2-yl)isonicotinamide] here?
**A.** 2.1 nM

**Q.** For `Cc1ccc(NC(=O)c2ccnc(C(C)(C)C#N)c2)cc1-c1cc(N2CCOC(C)(C)C2)c(=O)n(C)n1` [Example 666, 2-(2-cyanopropan-2-yl)-N-(3-(5-(2,2-dimethylmorpholino)-1-methyl-6-oxo-1,6-dihydropyridazin-3-yl)-4-methylphenyl)isonicotinamide], which IC50 [1] is on record?
**A.** 2.4 nM

**Q.** Which IC50 [1] does the source give for `Cc1ccc(NC(=O)c2ccnc(C(C)(F)F)c2)cc1-c1cc(N2CCOC(C)(C)C2)c(=O)n(C)n1` [Example 667, 2-(1,1-difluoroethyl)-N-(3-(5-(2,2-dimethylmorpholino)-1-methyl-6-oxo-1,6-dihydropyridazin-3-yl)-4-methylphenyl)isonicotinamide] here?
**A.** 1.1 nM

**Q.** For `Cc1ccc(NC(=O)c2ccnc(C(C)(C)F)c2)cc1-c1cc(N2C3CCC2COC3)c(=O)n(C)n1` [Example 668, N-(3-(5-(3-oxa-8-azabicyclo[3.2.1]octan-8-yl)-1-methyl-6-oxo-1,6-dihydropyridazin-3-yl)-4-methylphenyl)-2-(2-fluoropropan-2-yl)isonicotinamide], which IC50 is on record?
**A.** 1.2 nM

**Q.** Which IC50 [1] does the source give for `Cc1ccc(NC(=O)c2ccnc(C(C)(C)C#N)c2)cc1-c1cc(N2C3CCC2COC3)c(=O)n(C)n1` [Example 669, N-(3-(5-(3-oxa-8-azabicyclo[3.2.1]octan-8-yl)-1-methyl-6-oxo-1,6-dihydropyridazin-3-yl)-4-methylphenyl)-2-(2-cyanopropan-2-yl)isonicotinamide] here?
**A.** 2.5 nM

**Q.** With `Cc1ccc(NC(=O)c2ccnc(C(C)(F)F)c2)cc1-c1cc(N2C3CCC2COC3)c(=O)n(C)n1` [Example 670, N-(3-(5-(3-oxa-8-azabicyclo[3.2.1]octan-8-yl)-1-methyl-6-oxo-1,6-dihydropyridazin-3-yl)-4-methylphenyl)-2-(1,1-difluoroethyl)isonicotinamide] as the molecule, how does the IC50 read?
**A.** 0.9 nM

**Q.** `Cc1ccc(NC(=O)c2ccnc(C(C)(C)C#N)c2)cc1-c1cc(N2CCOCC2(C)C)c(=O)n(C)n1` [Example 671, 2-(2-cyanopropan-2-yl)-N-(3-(5-(3,3-dimethylmorpholino)-1-methyl-6-oxo-1,6-dihydropyridazin-3-yl)-4-methylphenyl)isonicotinamide] was tested. Which IC50 [1] did it give?
**A.** 6.8 nM

**Q.** How did the IC50 [1] turn out when `Cc1ccc(NC(=O)c2ccnc(C(C)(C)C#N)c2)cc1-c1cc(N2CCOC[C@H]2C)c(=O)n(C)n1` [Example 672, (R)-2-(2-cyanopropan-2-yl)-N-(4-methyl-3-(1-methyl-5-(3-methylmorpholino)-6-oxo-1,6-dihydropyridazin-3-yl)phenyl)isonicotinamide] was run?
**A.** 3.5 nM

**Q.** For `Cc1ccc(NC(=O)c2ccnc(C(C)(C)F)c2)cc1-c1cc(N2CCOC[C@H]2C)c(=O)n(C)n1` [Example 673, (R)-2-(2-fluoropropan-2-yl)-N-(4-methyl-3-(1-methyl-5-(3-methylmorpholino)-6-oxo-1,6-dihydropyridazin-3-yl)phenyl)isonicotinamide], which IC50 [1] is on record?
**A.** 2.7 nM

**Q.** `Cc1ccc(NC(=O)c2ccnc(C(C)(F)F)c2)cc1-c1cc(N2CCOC[C@H]2C)c(=O)n(C)n1` [Example 674, (R)-2-(1,1-difluoroethyl)-N-(4-methyl-3-(1-methyl-5-(3-methylmorpholino)-6-oxo-1,6-dihydropyridazin-3-yl)phenyl)isonicotinamide] was tested. Which IC50 [1] did it give?
**A.** 1 nM

**Q.** Which IC50 [1] does the source give for `Cc1ccc(NC(=O)c2ccnc(C(C)(C)C#N)c2)cc1-c1cc(C2CCOCC2)c(=O)n(C)n1` [Example 675, 2-(2-cyanopropan-2-yl)-N-(4-methyl-3-(1-methyl-6-oxo-5-(tetrahydro-2H-pyran-4-yl)-1,6-dihydropyridazin-3-yl)phenyl)isonicotinamide] here?
**A.** 1.4 nM

**Q.** How did the IC50 [1] turn out when `Cc1ccc(NC(=O)c2ccnc(C(C)(C)F)c2)cc1-c1cc(C2CCOCC2)c(=O)n(C)n1` [Example 676, 2-(2-fluoropropan-2-yl)-N-(4-methyl-3-(1-methyl-6-oxo-5-(tetrahydro-2H-pyran-4-yl)-1,6-dihydropyridazin-3-yl)phenyl)isonicotinamide] was run?
**A.** 0.7 nM

**Q.** With `Cc1ncc(NC(=O)c2ccnc(C(C)(C)F)c2)cc1-c1cc(N2CCOCC2)c(=O)n(C)n1` [Example 677, 2-(2-fluoropropan-2-yl)-N-(6-methyl-5-(1-methyl-5-morpholino-6-oxo-1,6-dihydropyridazin-3-yl)pyridin-3-yl)isonicotinamide] as the molecule, how does the IC50 [1] read?
**A.** 4.6 nM

**Q.** Which IC50 [1] does the source give for `Cc1ncc(NC(=O)c2ccnc(C(C)(F)F)c2)cc1-c1cc(N2CCOCC2)c(=O)n(C)n1` [Example 678, 2-(1,1-difluoroethyl)-N-(6-methyl-5-(1-methyl-5-morpholino-6-oxo-1,6-dihydropyridazin-3-yl)pyridin-3-yl)isonicotinamide] here?
**A.** 2.1 nM

**Q.** How did the IC50 [1] turn out when `CCC(F)(F)c1cc(C(=O)Nc2cnc(C)c(-c3cc(N4CCOCC4)c(=O)n(C)n3)c2)ccn1` [Example 679, 2-(1,1-difluoropropyl)-N-(6-methyl-5-(1-methyl-5-morpholino-6-oxo-1,6-dihydropyridazin-3-yl)pyridin-3-yl)isonicotinamide] was run?
**A.** 2.7 nM

**Q.** How did the IC50 [1] turn out when `Cc1ncc(NC(=O)c2ccnc(C(F)F)c2)cc1-c1cc(N2CCOCC2)c(=O)n(C)n1` [Example 680, 2-(difluoromethyl)-N-(6-methyl-5-(1-methyl-5-morpholino-6-oxo-1,6-dihydropyridazin-3-yl)pyridin-3-yl)isonicotinamide] was run?
**A.** 4 nM

**Q.** For `Cc1ncc(NC(=O)c2cccc(C(F)F)c2)cc1-c1cc(N2CCOCC2)c(=O)n(C)n1` [Example 681, 3-(difluoromethyl)-N-(6-methyl-5-(1-methyl-5-morpholino-6-oxo-1,6-dihydropyridazin-3-yl)pyridin-3-yl)benzamide], which IC50 [1] is on record?
**A.** 1 nM

**Q.** For `Cc1ncc(NC(=O)c2ccnc(C3CC3)c2)cc1-c1cc(N2CCOCC2)c(=O)n(C)n1` [Example 682, 2-cyclopropyl-N-(6-methyl-5-(1-methyl-5-morpholino-6-oxo-1,6-dihydropyridazin-3-yl)pyridin-3-yl)isonicotinamide], which IC50 [1] is on record?
**A.** 2.2 nM
